Measured values from patent US20150148403A1 (ACADEMIA SINICA, published 2015).

Target: T1, MBP-fused USP37 recombinant protein (human, UniProt Q86T82 1-979)
T1 construct: Recombinant fusion protein from pMAL-c2X; also called MBP-USP37; recombinant USP37
T1 sequence: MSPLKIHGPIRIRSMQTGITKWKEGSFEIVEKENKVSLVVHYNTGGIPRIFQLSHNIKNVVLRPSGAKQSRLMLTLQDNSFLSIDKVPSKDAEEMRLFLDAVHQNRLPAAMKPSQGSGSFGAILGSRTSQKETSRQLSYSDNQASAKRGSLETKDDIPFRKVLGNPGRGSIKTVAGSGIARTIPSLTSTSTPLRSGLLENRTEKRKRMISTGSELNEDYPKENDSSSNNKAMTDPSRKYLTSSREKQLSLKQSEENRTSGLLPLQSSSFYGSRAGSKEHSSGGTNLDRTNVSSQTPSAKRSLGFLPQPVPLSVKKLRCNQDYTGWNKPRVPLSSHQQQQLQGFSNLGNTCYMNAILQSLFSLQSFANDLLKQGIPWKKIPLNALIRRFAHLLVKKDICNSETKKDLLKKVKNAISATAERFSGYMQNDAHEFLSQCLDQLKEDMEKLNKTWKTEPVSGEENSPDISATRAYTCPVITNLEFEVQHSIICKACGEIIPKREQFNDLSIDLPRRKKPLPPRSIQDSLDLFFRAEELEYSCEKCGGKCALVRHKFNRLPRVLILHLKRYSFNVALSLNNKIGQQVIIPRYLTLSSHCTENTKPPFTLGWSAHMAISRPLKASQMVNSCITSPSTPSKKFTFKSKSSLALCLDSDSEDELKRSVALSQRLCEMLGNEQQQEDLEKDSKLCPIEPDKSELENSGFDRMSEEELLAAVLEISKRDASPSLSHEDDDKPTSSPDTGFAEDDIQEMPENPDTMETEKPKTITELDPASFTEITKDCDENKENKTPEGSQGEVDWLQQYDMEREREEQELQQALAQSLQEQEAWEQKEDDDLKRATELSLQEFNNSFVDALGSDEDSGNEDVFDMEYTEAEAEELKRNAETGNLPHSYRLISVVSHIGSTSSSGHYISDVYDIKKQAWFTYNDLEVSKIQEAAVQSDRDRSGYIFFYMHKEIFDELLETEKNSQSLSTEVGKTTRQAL
Assay: in vitro GST pull-down, Western blot
Procedure: GST pull-down assay was performed as described. Two μg of recombinant GST or GST-PLZF/RARA was incubated with 2 μg of MBP-USP37 and immobilized Glutathione beads (Thermo Scientific) in binding buffer (10 mM HEPES pH 7.5, 0.5 mM DTT, 0.5 mM EDTA, 0.1% NP-40, and 50 mM NaCl) for 4 hr at 4° C. After washing three times, the samples were then subjected to Western analysis. For in vitro deubiquitination assay, poly-ubiquitinated PLZF/RARA proteins immunoprecipitated from HEK-293T cells expressing Flag-tagged PLZF/RARA and Myc-tagged Ub were incubated with recombinant USP37 protein in 100 μl of deubiquitination buffer (50 mM Tri-HCl pH 8.0, 5 mM MgCl₂, and 1 mM DTT) for 2 hr at 37 C. The deubiquitination reaction was stopped by adding SDS sample buffer and bound proteins were extracted from beads for Western analysis.
Given that USP37 regulates PLZF/RARA protein steady-state level, we further assessed whether USP37-regulated PLZF/RARA protein level is through a protein interaction between USP37 and PLZF/RARA. […] We further substantiated the complex formation of PLZF/RARA with endogenous USP37, using U937 cells conditionally expressing Flag-tagged PLZF/RARA by adding doxycycline. Endogenous USP37 could form complexes with PLZF/RARA in cells by immunoprecipitation with either anti-USP37 or anti-Flag antibody (FIG. 3b). […]

B1: recombinant GST (other, UniProt P08515 1-218, looked up)
chain: MSPILGYWKIKGLVQPTRLLLEYLEEKYEEHLYERDEGDKWRNKKFELGLEFPNLPYYIDGDVKLTQSMAIIRYIADKHNMLGGCPKERAEISMLEGAVLDIRYGVSRIAYSKDFETLKVDFLSKLPEMLKMFEDRLCHKTYLNGDHVTHPDFMLYDALDVVLYMDPMCLDAFPKLVCFKKRIEAIPQIDKYLKSSKYIAWPLQGWQATFGGGDHPPK
notes: Negative control in the GST pull-down
binding result: no binding (tested: 2 µg of each protein)
